The target of the test is T1, Histone acetyltransferase RTT109 (Saccharomyces cerevisiae (strain ATCC 204508 / S288c) (Baker's yeast), UniProt Q07794).
T1 sequence (Q07794 whole entry): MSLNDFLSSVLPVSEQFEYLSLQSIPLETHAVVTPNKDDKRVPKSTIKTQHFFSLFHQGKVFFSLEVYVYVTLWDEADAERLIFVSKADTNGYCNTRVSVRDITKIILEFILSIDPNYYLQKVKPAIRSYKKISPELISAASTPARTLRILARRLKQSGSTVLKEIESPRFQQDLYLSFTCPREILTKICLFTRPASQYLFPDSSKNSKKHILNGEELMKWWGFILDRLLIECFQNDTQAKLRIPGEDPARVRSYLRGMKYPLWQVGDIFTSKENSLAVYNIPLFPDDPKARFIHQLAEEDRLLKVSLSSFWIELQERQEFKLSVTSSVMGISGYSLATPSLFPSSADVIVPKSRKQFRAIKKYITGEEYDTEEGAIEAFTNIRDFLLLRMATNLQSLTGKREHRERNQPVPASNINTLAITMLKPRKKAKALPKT
The test can be described thus: Inhibition of Vps75-stimulated recombinant Saccharomyces cerevisiae histone acetyltransferase Rtt109 using Asf1-dH3-H4 as substrate assessed as coenzyme A production after 45 mins by CPM based HTS assay. The essentials:
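Recombinant Rtt109–Vps75 at 50 nM, with Asf1–dH3–H4 as substrate and acetyl-CoA as acetyl donor. Buffer contained freshly prepared 0.01% Triton X-100. The CoA product was detected by fluorescence of its CPM adduct. Plates had Z′ ≥0.5. IC50 came from a four-parameter variable-slope fit.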

The term IC50 denotes the midpoint of a concentration-inhibition curve.

`O=C1C=CC(=O)N1c1ccc(Cl)cc1`: the IC50 worked out at 6.3 µM.

The record behind these values is ChEMBL document CHEMBL3414544, “PAINS in the assay: chemical mechanisms of assay interference and promiscuous enzymatic inhibition observed during a sulfhydryl-scavenging HTS” (J Med Chem, 2015).
